The assay has as its target T1, Human recombinant MKlp2 motor domain1-519, His tagged (Homo sapiens, UniProt O95235).
T1 construct: Human recombinant MKlp2 motor domain1-519, His tagged; His; purchased Cytoskeleton MP05
T1 sequence (O95235 1-519): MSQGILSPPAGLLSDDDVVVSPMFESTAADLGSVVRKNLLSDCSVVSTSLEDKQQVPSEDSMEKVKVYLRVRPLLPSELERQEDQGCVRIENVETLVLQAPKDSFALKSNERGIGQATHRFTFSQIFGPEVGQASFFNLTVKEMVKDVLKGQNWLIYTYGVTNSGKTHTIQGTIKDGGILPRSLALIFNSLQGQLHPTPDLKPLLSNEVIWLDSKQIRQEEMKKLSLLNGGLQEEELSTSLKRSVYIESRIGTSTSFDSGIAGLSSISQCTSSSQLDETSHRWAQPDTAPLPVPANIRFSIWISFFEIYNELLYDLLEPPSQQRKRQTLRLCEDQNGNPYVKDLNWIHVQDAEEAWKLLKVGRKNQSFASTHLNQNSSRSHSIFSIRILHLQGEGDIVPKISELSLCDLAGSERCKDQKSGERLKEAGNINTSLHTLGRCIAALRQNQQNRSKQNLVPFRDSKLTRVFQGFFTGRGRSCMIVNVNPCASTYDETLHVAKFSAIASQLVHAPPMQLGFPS
As to the kind of experiment: Microtubule stimulated ATPase activity of the MKlp2 motor domain (Kinesin ELIPA Assay Kit). In kind it is biochemical. The note with it: MKIp2 IC50 (μM), Table 3, 22° C. The procedure:
Evaluation of Inhibitory Effects on the Microtubule Stimulated ATPase Activity of the MKlp2 Motor Domain.
MKlp2 ATPase activity was measured by monitoring real time free phosphate generation using the Kinesin ELIPA Assay Kit. The assay is based upon an absorbance shift (330 nm-360 nm) that occurs when 2-amino-6-mercapto-7-methylpurine ribonucleoside (MESG) is catalytically converted to 2-amino-6-mercapto-7-methylpurine in the presence of inorganic phosphate (Pi). One molecule of Pi will yield one molecule of 2-amino-6-mercapto-7-methylpurine in an essentially irreversible reaction.
All experiments were performed at 22° C.
Condition 1, compound preparation.
The compounds were dissolved in DMSO at 30× the maximum concentration to be tested. […] DMSO solutions were pipetted directly into each well.
Condition 2, reaction's “motor mix”.
The following were mixed sequentially in the specified order at RT to obtain the “motor mix”.
20 mL: 15 mM Pipes-NaOH pH 7.0, 10 mM MgCl2, 30 μM Tx (Buffer 1).
10 mL: 5× MSEG (ELIPA 1 reagent, Cat. # BK051).
10 mL: 2.5 mg/mL porcine brain microtubules (3×10 mg Cat. # MT002-XL resuspended in 12 mL of Buffer 1).
0.5 mL: 100×PNP (ELIPA 2 reagent, cat. # BK051). […]
The reactions were measured in a SpectraMax M2 (Molecular Devices) set in kinetic mode and 360 nm absorbance wavelength. The start protocol was 5 second rapid circular mixing, 21 readings, 30 seconds apart.

The values below come from patent US10189782B2, “Derivatives of indole for the treatment of cancer, viral infections and lung diseases” (BIOKINESIS, priority 2012, dated 2019).

`N#CC(=Cc1cccnc1)c1c[nH]c2ccc(Br)cc12` [W02010/150211-Example 37, reference compound]: the IC50 (usually the concentration needed to halve the response being measured) turned out to be 1.5 µM.
